Test results from publication PMC9784403 (Pharmaceuticals, 2022).

Target: T1, σ2R/TMEM97 (Rattus norvegicus, UniProt Q5U3Y7)
T1 sequence (Q5U3Y7 1-176): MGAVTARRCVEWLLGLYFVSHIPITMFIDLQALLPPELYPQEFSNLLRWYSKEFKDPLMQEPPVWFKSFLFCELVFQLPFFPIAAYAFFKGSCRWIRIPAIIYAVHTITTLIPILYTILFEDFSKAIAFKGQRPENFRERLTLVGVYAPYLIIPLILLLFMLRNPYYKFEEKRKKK
Test: Competitive receptor binding assay with [3H]DTG (σ1R masked with (+)-pentazocine)
Details: full competition assay using both radioligands, [3H]DTG and [125I]RHM-4

Cc1ccc2c(c1)C1CN(C)CCC1N2C(=O)CSc1nnnn1-c1ccc(Cl)cc1 (stereo not shown) [AG-205, reference compound]
σ2R affinity: ~1 µM
